Data from US20190117770A1, “USES OF IMMUNOCONJUGATES TARGETING CD138” (Biotest AG, priority 2011, published 2019).

How the values were obtained:
[1] = Clinical trials of other immunoconjugates (literature); format: in vivo, human; settings: assuming 70 kg and 1.9 m^2 body surface area
[2] = literature; cited from earlier work

T-DM1
Corresponds to total concentration of [1]: 168 mg | MTD, once weekly regimen [2]: MTD at 2.4 mg/kg
